A549 viability – kills or reduces viability of A549 cells in Nrf2 counter-screen; A549 ARE-Fluc cells, CellTiter-Fluor viability, 18-24 h; 390,000 compounds, 0.16% hits; Potency, µM (highest dose often 46 µM), inactives show at the top dose activity change, negative = cytotoxicity, actives largely listed as inhibitors; also: % is scaled to controls: 0 for no effect and ±100 for the full control effect
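A549 ARE_Fluc cells in 5% FBS OPTI-MEM were exposed to compounds in concentration-response for 18-24 h at 37 deg C. Viability was read by CellTiter-Fluor fluorescence (Ex 405/Em 525) after 30 min, before the luciferase read.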
Rango-impB inh – inhibitors of Rango-importin beta complex formation; Potency, µM (titrated, usually from 92.2 µM), for inactives: at the top dose inhibition of complex formation; 340,000 compounds, 0.031% hits; AID 540263; Rango CFP/YFP FRET sensor + importin beta, 45 min; Q14974; calls by dose curve;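 also: 0% = DMSO wells and 100% = buffer wells lacking importin beta; nearly all actives have a fitted effect of over 15% in size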
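FRET biosensor (snurportin 1 IBB flanked by EYFP and cerulean), 50 nM, with compound 5 min, then 0.125 microM importin beta in PBS, 1 mM DTT, 0.02% Tween-20, 0.1% BSA. CFP/YFP ratio read after 45 min at room temperature; pre-read flags interference.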
Rango dissoc inh – inhibitors of RanGTP-induced Rango-importin beta complex dissociation; Biochemical FRET Rango-importin beta, RanGTP-induced dissociation; Potency, µM (doses to about 46.1 µM), without a hit: at the highest dose activity change, negative = inhibition; 340,000 compounds, 0.071% hits; calls by dose curve; also: % of control where 0% means no effect; nearly all actives have a fitted effect of over 45% in size
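Two FRET readings bracket the reaction: one 5 min after compound meets Rango–importin beta, another 45 min after RanGTP-RCC1 (0.6 uM Ran, 0.2 uM RCC1, 2 mM GTP) is added. Only the second defines inhibition.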
Nrf2 ARE act – Nrf2 pathway activation. AREc32 ARE-luciferase reporter (MCF7-derived line), luminescence, 24 h. Potency, µM (series often up to 46.1 µM), for the others: at the highest dose activation, actives largely listed as activators. 410,000 compounds, 0.31% hits; also: % of control where 0% means no effect; nearly all actives have a fitted effect of over 65% in size
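ARE activation measured as luciferase luminescence (Steady-Glo, 30 min RT) in AREc32_Fluc cells after 24 hr compound exposure at 37 deg C, 5% CO2; cells seeded overnight at 1000/well in OPTI-MEM, 5% FBS.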
Nrf2 inh – blocks Nrf2 signaling | A549 ARE-Fluc reporter, luciferase luminescence, 18-24 h | Potency, µM (series often up to 46 µM), for inactives: at the highest dose activity change, negative = inhibition, usual class: inhibitors | 360,000 compounds, 2.1% hits; also: % is scaled to controls: 0 for no effect and ±100 for the full control effect; nearly all actives have a fitted effect of over 60% in size
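In this cell-based qHTS, ARE-driven firefly luciferase in A549 cells reports Nrf2 activity; the luminescent signal after BugLite lysis is the measured value, with a prior CellTiter-Fluor read for cell health.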
* marks the source's active call; other numbers are inactive results; ? = inconclusive; . = no result given; [ ] = another dose, or the depositor's remark. Sampled rows, rich in hits. Any-hit rate of the full collection: about 2.3%. Unless noted, calls follow the shape of the dose curve; as a rule, active = well fitted curve in the direction sought with a large enough effect; inconclusive = small, poorly fitted or top-dose-only effect, or another doubt; inactive = no such curve, though single readings can be large; an effect the other way counts as inactive or inconclusive. Potency is read from the fitted curve at half-maximal effect.

Start of the listing, in advance, five compounds:
SMILES | A549 viability | Rango-impB inh | Rango dissoc inh | Nrf2 ARE act | Nrf2 inh
COc1ccc(OC)c(NC(=O)N2c3ccccc3Sc3ccccc32)c1 | 7.6% | . | . | 3.7% | -2.0%
Cc1ccc(-c2cc(C(=O)N3CCN(c4ccccc4)CC3)c3ccccc3n2)cc1C | 2.0% | . | . | 4.8% | .
Cc1ccc2c(C(=O)N3CCN(c4ccccc4)CC3)cc(-c3cccnc3)nc2c1C | ? | -6.1% | -5.4% | 2.1% | 20.6µM*
COc1ccc(OC)c(CNC(=O)C2CCN(c3nc4ccccc4nc3C(F)(F)F)CC2)c1 | 8.5% | . | . | 0.3% | ?
CSCC[C@H](NC(=O)OC(C)(C)C)c1nnc(SCc2ccc(F)cc2)o1 | -9.9% | 1.2% | -3.7% | -0.1% | 25.9µM*

The list itself (from the top)
SMILES | A549 viability | Rango-impB inh | Rango dissoc inh | Nrf2 ARE act | Nrf2 inh
COc1ccc(OC)c(NC(=O)N2c3ccccc3Sc3ccccc32)c1 | 7.6% | . | . | 3.7% | -2.0%
Cc1ccc(-c2cc(C(=O)N3CCN(c4ccccc4)CC3)c3ccccc3n2)cc1C | 2.0% | . | . | 4.8% | .
Cc1ccc2c(C(=O)N3CCN(c4ccccc4)CC3)cc(-c3cccnc3)nc2c1C | ? | -6.1% | -5.4% | 2.1% | 20.6µM*
COc1ccc(OC)c(CNC(=O)C2CCN(c3nc4ccccc4nc3C(F)(F)F)CC2)c1 | 8.5% | . | . | 0.3% | ?
CSCC[C@H](NC(=O)OC(C)(C)C)c1nnc(SCc2ccc(F)cc2)o1 | -9.9% | 1.2% | -3.7% | -0.1% | 25.9µM*
CSCC[C@H](NC(=O)OC(C)(C)C)c1nnc(SCc2ccccc2)o1 | -1.4% | 0.1% | 2.6% | 0.2% | .
COc1cc(NC(=O)Cn2cnc(S(=O)(=O)N3CCc4ccccc43)c2)cc(OC)c1OC | -6.6% | 1.6% | 11.2% | -0.8% | 3.6%
CC1=CC(C)C(/C=N/N=C(N)N)C(C)C1 (centres undefined) | 3.0% | 3.2% | 0.3% | 3.1% | 4.2%
CC(C)COc1ccc(C(=O)Nc2cccc(-c3nc4ccccc4[nH]3)c2)cc1 | -18.1% | . | . | -1.3% | 23.1µM*
O=C(CN1C(=O)COc2ccc(Cl)cc21)Nc1ccccn1 | -9.9% | 8.5% | 0.5% | 21.1% | -22.6%
CN(C1=NC(=O)C(CC(=O)Nc2ccc(Br)cc2)S1)c1ccc(O)cc1 (centres undefined) | -13.9% | -1.0% | -5.5% | 0.2% | 23.1µM*
O=C(CC1SC(=O)N(c2ccccc2)C1=O)Nc1ccc(Br)cc1 (centres undefined) | -0.6% | 0.1% | 0.9% | 6.2% | ?
Cc1ccc(C(=O)n2nc(-c3ccco3)nc2NCc2cccs2)cc1 | -4.8% | . | . | -0.2% | 8.2µM*
COc1ccc(-c2nc(N)n(C(=O)c3ccc(C)cc3)n2)cc1 | -6.4% | 3.0% | -18.8% | 0.3% | 10.3µM*
Nc1nc(-c2ccco2)nn1C(=O)c1ccc(F)cc1 | 3.9% | 1.0% | -18.7% | -1.3% | 18.4µM*
O=C(c1ccccc1)n1nc(-c2ccco2)nc1NCc1cccs1 | -6.4% | . | . | 2.8% | 5.0%
COc1ccc(C(=O)n2nc(-c3ccc(OC)cc3)nc2N)cc1 | 2.8% | -3.3% | -0.7% | 2.0% | ?
COc1ccccc1NS(=O)(=O)c1ccc2c(c1)CCC(=O)N2 | 9.1% | . | . | . | 2.7%
Clc1ccc(OCc2nc(-c3ccc(-n4cccc4)cc3)no2)cc1 | -0.8% | . | . | -0.4% | -15.9%
O=C(CNC(=O)c1ccccc1F)NCCOc1ccccc1Cl | 9.4% | -0.6% | 14.7% | -0.7% | 2.8%
CCOc1ccc(C(=O)CC(NCc2cccs2)C(=O)O)cc1 (centres undefined) | 1.2% | -1.3% | -17.9% | 11.2µM* | 3.3%
CCOc1ccc(C(=O)CC(C(=O)O)N2CCN(Cc3ccccc3)CC2)cc1 (centres undefined) | 2.0% | -0.1% | -0.6% | ? | -2.1%
CCOc1ccc(C(=O)CC(C(=O)O)N2CCCCC2)cc1 (centres undefined) | -6.8% | -0.5% | 26.4% | 15.8µM* | -20.2%
Cc1ccc(S(=O)(=O)c2nnn3c2nc(N2CCN(c4ccccc4F)CC2)c2ccccc23)cc1C | 11.8% | . | . | -0.1% | 18.0%
Cc1nc(SCC(=O)NCC2COc3ccccc3O2)c2c(C)c(C)sc2n1 (centres undefined) | 0.8% | 2.4% | 32.5% | 0.0% | 20.6µM*
CCn1c(SCC(=O)Nc2ccc(OCc3ccccc3)cc2)nnc1-c1ccco1 | ? | 1.2% | 0.5% | 0.8% | 14.6µM*
CC(C)Oc1ccccc1NC(=O)CSc1nc2ccccc2c(=O)n1C | -0.2% | -1.1% | -12.7% | 2.7% | ?
CC(C)Cn1c(SCC(=O)Nc2cccc(S(N)(=O)=O)c2)nc2ccccc2c1=O | -19.8% | 0.3% | -3.8% | -0.5% | 20.6µM*
COc1cccc(NC(=O)CSc2nc3ccccc3c(=O)n2C)c1 | -9.6% | -0.4% | -7.8% | 3.2% | 14.6µM*
COCCn1c(SCc2ccc(C(=O)OC)o2)nc2ccccc2c1=O | -1.1% | -5.5% | -12.7% | -0.8% | 2.2%
COC(=O)c1cc(CSc2nc3ccccc3c(=O)n2C)oc1C | 5.0% | 2.5% | -5.6% | 2.9% | 18.4µM*
CCOC(=O)C1CCCN(C(=O)c2ccc(NC(=O)c3nsc4ccccc34)cc2)C1 (centres undefined) | -5.3% | . | . | 4.3% | .
N#CN1CCC(NC(=O)c2ccc(C(F)(F)F)cc2)CC1 | -2.8% | . | . | . | 10.0%
CCn1c(SCCC(=O)Nc2ccccc2)nnc1-c1ccc(OC)cc1 | -6.9% | -3.3% | 6.1% | -0.7% | -5.5%
Cc1nnc(SCC(=O)Nc2cccc(S(N)(=O)=O)c2)n1-c1ccccc1 | -0.1% | -0.7% | -6.7% | -0.7% | 1.6%
Cc1ccc(-n2c(SCC(=O)Nc3cccc(S(N)(=O)=O)c3)nc3ccccc32)cc1 | ? | 2.4% | 0.2% | 3.2% | 20.6µM*
CCn1c(SCC(=O)Nc2cccc(OC)c2)nnc1-c1ccc(Cl)cc1 | -12.0% | 1.9% | -3.3% | 0.4% | 25.9µM*
C=CCn1c(SCC(=O)Nc2cccc(S(N)(=O)=O)c2)nc2sc(C)c(C)c2c1=O | ? | 0.0% | -4.2% | 4.0% | 16.4µM*
Cc1cc(Cc2cc(C)c(O)c(CO)c2)cc(CO)c1O | -3.3% | 65.1µM* | 8.5% | 8.0% | -23.6%
Cc1nnc(SCC(=O)N/N=C/c2cn(-c3ccccc3)nc2-c2ccccc2)n1-c1ccccc1 | -29.2% | 2.2% | -3.0% | 2.3% | 16.4µM*
Cc1ccnn1CC(=O)N/N=C/c1ccc([N+](=O)[O-])s1 | -22.3% | -0.3% | -5.6% | 0.6% | 25.9µM*
O=C(N/N=C/c1ccc([N+](=O)[O-])s1)C(O)c1ccccc1 (centres undefined) | ? | -0.6% | 3.4% | -0.7% | 5.17µM*
Cc1ccc(-c2nnc(SCC(=O)N/N=C/c3ccc(C)s3)n2-c2ccc(C)cc2)cc1 | ? | 1.9% | 12.9% | 0.4%[9.22 µM] | 20.6µM*
Cc1ccnn1CC(=O)N/N=C/c1cccs1 | 4.3% | -4.3% | -11.3% | -1.9% | 1.8%
CCOC(=O)c1cccc(NC(=O)c2cc3c(=O)n(C)c4ccccc4c3n2C)c1 | 4.0% | . | . | -0.6% | ?
CCOC(=O)c1cc(C)n(CC2CCC(C(=O)Nc3ccc(C(C)=O)cc3)CC2)c1C (centres undefined) | -13.5% | . | . | 3.6% | -24.7%
CC1(C(=O)NCc2cccc(Cl)c2)Cc2c(-c3ccc4c(c3)OCO4)ccnc2O1 (centres undefined) | . | . | . | 5.6% | .
CC(=O)NC(c1ccc(F)c(F)c1)c1nc(-c2cc3ccccc3o2)cs1 (centres undefined) | . | . | . | 7.2% | .
O=C(Cc1ccccc1)N/N=C/c1ccc([N+](=O)[O-])s1 | ? | 1.1% | 16.8% | -0.4% | 20.6µM*

Screens as filed in PubChem.
